Target: Fatty-acid amide hydrolase 1 (Rattus norvegicus, UniProt P97612)
Assay: Inhibitory constant determined against recombinant Fatty-acid amide hydrolase from rat expressed in Escherichia coli

By UniProt entry, the sequences of proteins in these tests, tags left out.
UniProt P97612, whole entry: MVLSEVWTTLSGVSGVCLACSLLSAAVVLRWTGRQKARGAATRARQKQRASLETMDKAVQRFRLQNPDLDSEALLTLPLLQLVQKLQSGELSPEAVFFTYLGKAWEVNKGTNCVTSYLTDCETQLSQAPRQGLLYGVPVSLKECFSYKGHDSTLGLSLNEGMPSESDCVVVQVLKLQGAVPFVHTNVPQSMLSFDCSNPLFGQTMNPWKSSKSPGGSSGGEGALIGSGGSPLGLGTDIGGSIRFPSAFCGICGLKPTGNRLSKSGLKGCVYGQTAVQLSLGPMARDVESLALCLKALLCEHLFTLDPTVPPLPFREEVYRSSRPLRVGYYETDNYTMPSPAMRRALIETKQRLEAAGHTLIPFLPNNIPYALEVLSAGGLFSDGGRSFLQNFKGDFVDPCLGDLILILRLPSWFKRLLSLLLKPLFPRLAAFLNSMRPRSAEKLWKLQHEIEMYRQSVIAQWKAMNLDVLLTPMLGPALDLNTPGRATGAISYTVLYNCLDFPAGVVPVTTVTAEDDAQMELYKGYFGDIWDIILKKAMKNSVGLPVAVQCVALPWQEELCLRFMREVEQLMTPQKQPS

Structure (SMILES): O=C(CCCCCCc1ccccc1)c1ncc(-c2ccccc2)o1
- Ki: 140 nM

Reference: ChEMBL document CHEMBL1142723, “Discovery of a potent, selective, and efficacious class of reversible alpha-ketoheterocycle inhibitors of fatty acid amide hydrolase effective as analgesics” (J Med Chem, 2005)
